The source of these data is US9370606B2, “Scaffold-free self-organized 3D synthetic tissue” (Two Cells, Co., Ltd., priority 2003, dated 2016).

This assay has as its system synovial cell in a three-dimensional synthetic tissue. Kind of assay: Chondrogenesis induction of the synthetic tissue. Format: cell-based. The note with it: chondrogenesis induction medium+BMP-2. As for the experimental part:
In this example, it was determined whether or not chondrogenesis induction can be used for the production method of the synthetic tissue of the present invention.
Cell density: 4×10^4 cells/cm^2
Conditions: CO2 5%, air 95%, 37° C.
These conditions and a chondrogenesis induction medium described below were used to produce a synthetic tissue.
Cartilage differentiation induction medium: DMEM (GIBCO), FBS (HyClone) 10%, ITS+Premix (insulin, transferrin, selenious acid) (BD Biosciences) 6.25 μg/ml, dexamethasone (Sigma) 10^−7 M, ascorbic acid (WAKO) 50 μg/ml, pyrubic acid (SIGMA) 100 μg/ml.

B1: BMP-2: bone morphogenetic protein added to chondrogenesis induction medium (protein, UniProt P12643 283-396, looked up)
Bone morphogenetic protein 2: QAKHKQRKRLKSSCKRHPLYVDFSDVGWNDWIVAPPGYHAFYCHGECPFPLADHLNSTNHAIVQTLVNSVNSKIPKACCVPTELSAISMLYLDENEKVVLKNYQDMVVEGCGCR
For the molecule B1, the “acceleration of cartilage-like matrix production (Alcian blue staining)” value is “significant” and the “expression of the collagen II gene” value is reported as “increased”.
